Source: ChEMBL document CHEMBL2010736 (ACS Med Chem Lett, 2011)

Sequences of proteins named here, by UniProt entry; tags and fusion partners are left off.
UniProt P30542, whole entry: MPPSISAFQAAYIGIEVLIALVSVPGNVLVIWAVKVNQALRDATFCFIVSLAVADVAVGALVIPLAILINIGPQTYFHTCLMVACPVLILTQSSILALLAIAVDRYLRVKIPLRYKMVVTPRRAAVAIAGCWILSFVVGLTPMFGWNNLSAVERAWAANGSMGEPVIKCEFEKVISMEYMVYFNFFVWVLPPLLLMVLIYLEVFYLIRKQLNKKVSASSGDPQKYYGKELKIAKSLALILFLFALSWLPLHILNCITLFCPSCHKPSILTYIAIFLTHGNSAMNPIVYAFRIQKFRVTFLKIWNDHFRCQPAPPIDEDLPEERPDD

Key:
Homo sapiens = species on record: Homo sapiens; experiment: Selectivity ratio of Ki for human recombinant adenosine receptor-3 to Ki for human recombinant adenosine receptor-1
Adenosine receptor A1 = Adenosine receptor A1 (Homo sapiens, UniProt P30542); experiment: Agonist activity at human recombinant adenosine receptor-1 expressed in CHO cells assessed as inhibition of forskolin-stimulated cAMP production at 10 uM preincubated for 45 mins prior forskolin-induction measured after 15 mins by immunoassay relative to 10 uM CPA; type: functional, cell-based

Row | Compound | Ratio Ki (Homo sapiens) | inhibition (Adenosine receptor A1)
1 | O[C@@H]1[C@H](O)[C@@H]2C[C@@H]2[C@H]1n1cnc2c(NC3CCCCCC3)nc(Cl)nc21 | 2 | –
2 | CC(Nc1nc(Cl)nc2c1ncn2[C@H]1[C@H](O)[C@H](O)[C@@H]2C[C@@H]21)C1CC1 (mixture of isomers) | – | 45.5%
